Results from patent publication US5426113A, “Method of preventing ulcer formation caused by nonsteroidal antiinflammatory drugs employing tetrazol-benzothiophene carboxamide compounds” (Warner-Lambert Company, priority 1994, dated 1995).

Target: T1, MAC-1 (Homo sapiens, UniProt P05107+P11215)
T1 construct: endogenous in cells
Test: Inhibition of MAC-1 mediated adhesion of FMLP-stimulated neutrophils to KLH-coated plastic
Format: cell-based

`COc1cc2sc(C(=O)Nc3nn[nH]n3)c(OC(C)C)c2cc1OC` [Example 3, 5,6-Dimethoxy-3-(1-methylethoxy)-N-1H-tetrazol5-yl-benzo[b]thiophene-2-carboxamide] and `COc1ccc2c(OC(C)C)c(C(=O)Nc3nn[nH]n3)sc2c1` [Example 2, 6-Methoxy-3-(1-methylethoxy)-N-1H-tetrazol-5-yl-benzo[b]thiophene-2-carboxamide] cannot be ordered by IC50: 1300 nM for the first, less than 3300 nM for the second.

Work on `COc1cc2sc(C(=O)Nc3nn[nH]n3)c(Oc3ccccc3)c2cc1OC` [Example 4, 5,6-Dimethoxy-3-phenoxy-N-1H-tetrazol-5-yl-benzo[b]thiophene-2-carboxamide] yielded an IC50 of less than 3300 nM.
